{"sequences": {"note": "By UniProt entry, the sequences of proteins in these tests, tags left out. Where a name states a change or a piece, a line headed by the entry shows the natural chain unless it says otherwise.", "UniProt P16791": "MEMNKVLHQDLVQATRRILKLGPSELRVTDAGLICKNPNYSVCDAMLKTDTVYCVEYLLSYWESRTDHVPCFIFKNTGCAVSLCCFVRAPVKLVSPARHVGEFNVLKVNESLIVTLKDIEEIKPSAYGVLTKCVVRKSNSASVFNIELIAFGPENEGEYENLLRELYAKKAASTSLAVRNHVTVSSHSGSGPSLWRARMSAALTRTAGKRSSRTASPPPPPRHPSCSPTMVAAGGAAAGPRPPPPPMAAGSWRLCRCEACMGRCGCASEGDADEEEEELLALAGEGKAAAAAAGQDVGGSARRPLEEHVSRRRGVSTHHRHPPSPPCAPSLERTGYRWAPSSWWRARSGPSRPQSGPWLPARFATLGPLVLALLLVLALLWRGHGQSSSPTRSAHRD"}, "source": "paper PMC10137179", "about": "(Cells, 2023)", "key": {"[1]": {"target": "pUL50–pUL53 interaction (LgBiT::UL53-Flag + SmBiT::UL50-HA) (Human cytomegalovirus, UniProt P16791)", "conditions": "293T cells, 5×, 1× or 0.2× anti-HCMV EC50 levels, full-length LgBiT::UL53-Flag"}, "[2]": {"target": "pUL50–pUL53 interaction (LgBiT::UL53(1–87)-Flag + SmBiT::UL50-HA) (Human cytomegalovirus, UniProt P16791)", "conditions": "293T cells, 5×, 1× or 0.2× anti-HCMV EC50 levels, truncated LgBiT::UL53(1–87)-Flag"}}, "data": [{"smiles": "CCOc1cc2ncc(C#N)c(Nc3ccc(OCc4ccccn4)c(Cl)c3)c2cc1NC(=O)/C=C/CN(C)C", "note": "[neratinib]", "values": [{"measurement": "inhibitory effect on NanoBiT interaction signal (in words)", "setting": "[1]", "value": "very minor or no effects"}, {"measurement": "inhibitory effect on NanoBiT interaction signal (in words)", "setting": "[2]", "value": "very minor or no effects"}]}]}
